Assay results from ChEMBL document CHEMBL1138911 (Bioorg Med Chem Lett, 2006).

Target: Kappa-type opioid receptor (Homo sapiens, UniProt P41145)
Test: Stimulation of [35S]GTP-gamma-S binding at kappa opioid receptor in human brain cortical membrane

## CO[C@]12CC[C@@]3(C[C@@H]1[C@@](C)(O)C1CCC1)C1Cc4ccc(O)c5c4[C@@]3(CCN1CC1CC1)[C@H]2O5
  EC50: 1.84 nM
